Measurements reported in article PMC9837035 (Nature Communications, 2023).
Values joined by “and” are separate entries in the source; they are usually repeats but may differ in a detail not shown here. Equal entries are not always repeated.

How the values were obtained:
[1] = system: BGLT3 RNA in HUDEP-2 cells; test: RT-qPCR of BGLT3 in HUDEP-2 cells; assay type: cell-based, human; conditions: HUDEP-2, 4 days
Experimental: (§1) Total cellular RNA was prepared using the Tissue Total RNA Mini Kit (FAVORGEN), and cDNA was synthesized using ReverTra Ace Master Mix (TOYOBO). Expression of target genes was analyzed using THUNDERBIRD SYBR qPCR Mix (TOYOBO) on a CFX Connect Real Time System (Bio-Rad). The qPCR data were acquired on CFX Maestro (Bio-Rad). Primers are listed in Supplementary Table 10. GAPDH was used as a reference. Primers were purchased from INTEGRATED DNA TECHNOLOGIES or FASMAC.

[2] = system: β- and γ-globin genes in HUDEP-2 cells; test: RT-qPCR of β- and γ-globin in HUDEP-2 cells; assay type: cell-based, human; conditions: HUDEP-2, 4 days
Experimental: as §1

G9a = target: T1, G9a (Homo sapiens, UniProt Q96KQ7); test: In vitro G9a methyltransferase assay (AlphaLISA-based); assay type: biochemical; parameters: purchased BPS Bioscience
T1 sequence (Q96KQ7 1-1210): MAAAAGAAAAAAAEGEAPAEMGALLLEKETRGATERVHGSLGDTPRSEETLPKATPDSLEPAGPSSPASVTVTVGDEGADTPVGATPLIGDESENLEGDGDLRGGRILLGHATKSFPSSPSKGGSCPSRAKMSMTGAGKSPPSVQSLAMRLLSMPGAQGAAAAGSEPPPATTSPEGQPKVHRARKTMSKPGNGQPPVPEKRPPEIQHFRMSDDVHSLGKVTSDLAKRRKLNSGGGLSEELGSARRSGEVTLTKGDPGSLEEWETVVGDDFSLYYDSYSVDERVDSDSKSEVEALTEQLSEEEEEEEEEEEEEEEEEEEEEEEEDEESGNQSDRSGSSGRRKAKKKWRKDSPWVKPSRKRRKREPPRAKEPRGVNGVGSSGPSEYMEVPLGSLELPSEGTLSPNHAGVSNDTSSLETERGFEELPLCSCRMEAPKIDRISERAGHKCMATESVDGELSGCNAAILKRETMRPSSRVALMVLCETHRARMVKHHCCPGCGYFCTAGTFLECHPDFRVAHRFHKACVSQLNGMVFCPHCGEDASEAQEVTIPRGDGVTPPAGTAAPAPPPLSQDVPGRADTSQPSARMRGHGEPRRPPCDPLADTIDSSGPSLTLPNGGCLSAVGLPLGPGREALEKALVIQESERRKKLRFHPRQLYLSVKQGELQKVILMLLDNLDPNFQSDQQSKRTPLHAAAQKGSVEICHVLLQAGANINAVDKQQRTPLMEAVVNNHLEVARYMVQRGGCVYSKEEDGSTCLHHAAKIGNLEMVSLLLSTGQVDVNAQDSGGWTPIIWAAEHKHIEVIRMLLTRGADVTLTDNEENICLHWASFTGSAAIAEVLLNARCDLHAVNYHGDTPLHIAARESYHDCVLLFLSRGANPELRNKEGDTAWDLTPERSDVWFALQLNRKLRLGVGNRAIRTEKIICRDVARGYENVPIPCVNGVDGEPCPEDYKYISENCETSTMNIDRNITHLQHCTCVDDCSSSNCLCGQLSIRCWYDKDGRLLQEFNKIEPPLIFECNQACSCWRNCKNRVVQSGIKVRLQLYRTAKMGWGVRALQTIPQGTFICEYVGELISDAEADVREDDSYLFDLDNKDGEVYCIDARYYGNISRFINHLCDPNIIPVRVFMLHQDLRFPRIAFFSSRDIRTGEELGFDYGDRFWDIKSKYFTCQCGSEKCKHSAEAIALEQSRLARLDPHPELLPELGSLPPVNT
Experimental: An amplified luminescence proximity homogeneous assay (ALPHA) was performed with a modified version of a previously described method. Recombinant G9a proteins (BPS Bioscience) were incubated with 15 μM S-adenosyl-methionine (Sigma) and 50 nM biotinylated histone H3 (1-21; AnaSpec) in the assay buffer (50 mM Tris-HCl (pH 9.0), 50 mM NaCl, 0.01% Tween-20, and 1 mM DTT). After incubation at room temperature for 1 h, AlphaLISA anti-H3K9me2 acceptor beads (final concentration 10 μg/mL, PerkinElmer, AL117C) and AlphaScreen streptavidin donor beads (final concentration 10 μg/mL, PerkinElmer, 6760002B) were added and incubated for an additional 1 h prior to detection of the alpha signal with an EnSpire Alpha plate reader (PerkinElmer). ALPHA profile was analyzed using Origin (OriginLab).

BGLT3 RNA in CD34+ cells = test: RT-qPCR of BGLT3 in CD34+ cells; assay type: cell-based, human; conditions: DAY7, 3 μM
Experimental: HUDEP-2 cells and HiDEP-1 cells were grown in Stemline II Hematopoietic Stem Cell Expansion Medium (Sigma) supplemented with 50 ng/mL recombinant stem cell factor (SCF; R&D systems), 3 IU/mL recombinant erythropoietin (EPO; Kyowa Kirin), 1 μM dexamethasone (Dex; Sigma), and 1 μg/mL doxycycline (Sigma). A total of 1 × 10^5 human CD34^+ progenitor cells derived from bone marrow or peripheral blood (Lonza) were cultured on 35-mm dishes (BD Falcon) in StemSpan SFEMII medium with 50 ng/mL SCF, 5 IU/mL EPO, and 10 ng /mL interleukin 3 (IL-3; R&D systems). The medium was changed on day 4 to SCF, EPO, and 1 μM Dex, and the cells were transferred to 60-mm dishes (BD Falcon). Seven days after the onset of differentiation, cells were counted and 1 × 10^6 cells were re-plated on 100-mm dishes (BD Falcon) with SCF, EPO, and Dex. The rat myoblast cell line H9c2, HEK293T, and PLAT-E cells were maintained in Dulbecco’s modified Eagle’s medium (Thermo Fisher Scientific) supplemented with 10% heat-inactivated fetal bovine serum (FBS) and penicillin/streptomycin. All cells were cultured at 37 °C under 5% CO2.
as §1

SMILES: Cc1c(C(=O)N[C@H](CCC2CC2)C(=O)Nc2ccc(C#N)cc2)[nH]c2c1C(=O)CC(C)(C)C2 [RK-0133114]
- Relative expression of BGLT3 RNA ([1]; 0.03 μM): 0.5248 and 1.042 and 0.6576
- Relative expression of BGLT3 RNA ([1]; 0.1 μM): 1.063 and 1.044 and 1.39
- Relative expression of BGLT3 RNA ([1]; 0.3 μM): 1.106 and 0.86 and 0.6718
- Relative expression of BGLT3 RNA ([1]; 1 μM): 1.177 and 0.871 and 0.6455
- Relative expression of BGLT3 RNA ([1]; 3 μM): 1.149 and 0.8746 and 0.841
- Relative expression of β-globin ([2]; 0.03 μM, relative to DMSO): 0.9476 and 0.9117 and 0.7199
- Relative expression of γ-globin ([2]; 0.03 μM, relative to DMSO): 1.068 and 1.169 and 1.019
- Relative expression of β-globin ([2]; 0.1 μM): 0.9383 and 0.8834 and 0.8704
- Relative expression of γ-globin ([2]; 0.1 μM): 1.237 and 1.228 and 1.187
- Relative expression of β-globin ([2]; 0.3 μM): 0.875 and 0.8569 and 0.9208
- Relative expression of γ-globin ([2]; 0.3 μM): 0.8891 and 1.107 and 1.136
- Relative expression of β-globin ([2]; 1 μM): 1.026 and 0.9802 and 0.9189
- Relative expression of γ-globin ([2]; 1 μM): 0.8715 and 1.235 and 1.061
- Relative expression of β-globin ([2]; 3 μM): 1.054 and 0.9655 and 0.8251
- Relative expression of γ-globin ([2]; 3 μM): 1.041 and 1.394 and 1.125
- fold weaker inhibition than RK-701 (G9a): ~ 100 fold
- Relative expression of BGLT3 RNA (BGLT3 RNA in CD34+ cells): 2.448 and 2.349 and 2.501
